## Apparent affinities of Ab-14 variants for a coronavirus HR2 peptide

Source: Li et al. 2023 (doi:10.1038/s41467-023-39022-2), MIT Lincoln Laboratory and A-Alpha Bio; data file from the FLAb repository.

Binding partner: SARS-CoV-2 spike HR2 peptide, sequence PDVDLGDISGINAS.

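This is the validation round: designs drawn from the data on random variants, tested in the same kind of assay. Their group label is 14L_En_HC (En: ensemble of fine-tuned language models; HC: hill climbing; a sequence that several methods proposed may carry one label only). The scFvs were displayed on barcoded MATa yeast, the peptide on MATalpha yeast. Pairs that bind mate more often; barcode pairs of the diploids are counted by sequencing. Each replicate has its own calibration line, from reference interactions of the BCL2 family. Mating was done six times.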

Parent scFv Ab-14: VH joined to VL by three GGGGS repeats. Changes lie in the light chain CDRs alone.
VH: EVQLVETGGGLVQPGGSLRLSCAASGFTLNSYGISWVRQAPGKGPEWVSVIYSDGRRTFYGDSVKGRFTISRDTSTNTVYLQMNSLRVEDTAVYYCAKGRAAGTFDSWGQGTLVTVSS
VL: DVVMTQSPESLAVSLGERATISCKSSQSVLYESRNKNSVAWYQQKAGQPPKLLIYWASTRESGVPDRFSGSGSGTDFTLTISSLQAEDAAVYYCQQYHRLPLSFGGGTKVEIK

Each variant is given by its three light chain CDRs, as the data file delimits them; those of the parent are KSSQSVLYESRNKNSVA, WASTRES, QQYHRLPLS. Scale: log10 of Kd in nM, estimated from mating counts; low values are strong binders. The mean shown is taken over the replicates in which the pair was detected. An entry "ND" has no value in the source: the pair was not observed among the diploids in that replicate. This suggests poor binding but is not conclusive. The authors averaged sequences with at least three values out of six and counted those with two or fewer as poor binders. Values of this round are not directly comparable with the first-round values of the same sequences. Of ten entries with the parent sequence, four were seen in most replicates (averages 0.34 to 2.37), three in one and three in none, so single entries are noisy. As a blank, each scFv also met three strains without target: over all light chain designs, 4% of these pairings were detected, typically at 2.64 and seldom below 1.59. For each scFv, signals with the empty controls are counted beside the result, with their mean in brackets.

| # | CDR-L1 | CDR-L2 | CDR-L3 | log10 Kd, replicates | mean, log10 nM | empty controls |
|---|---|---|---|---|---|---|
| 1 | KISGMYQKESKNKNSVA | EMVNREK | QQYDRLPLS | 1.10 0.77 0.44 1.08 0.67 1.31 | 0.90 | 1/18 (3.22) |
| 2 | TLSDLMYMESRNYNSVA | DLSKRGS | QQYHRLPLS | 0.02 0.00 0.05 -0.14 0.16 0.27 | 0.06 | 0/18 |
| 3 | KISMLQRYESQTKNNIA | EMSRREN | QQYHRLPLS | 0.46 0.53 0.18 0.33 0.49 0.65 | 0.44 | 1/18 (2.63) |
| 4 | KISMYLNKESKAKNNVA | EMVNRES | QQYDRLPLS | 0.67 0.16 0.57 0.21 0.31 0.35 | 0.38 | 1/18 (3.11) |
| 5 | HISDLIMVASRNRNSVA | DESTRPD | QQYHRLPLS | 0.43 0.25 0.23 0.54 0.31 0.39 | 0.36 | 0/18 |
| 6 | KLSGATRLESRNKASVA | ENSTRGE | QQYFRLPLS | 0.52 0.69 0.50 0.39 0.59 0.74 | 0.57 | 1/18 (2.00) |
| 7 | KLSEFAHFESRKKNSVA | ENSTRES | QQYDHLPLS | ND 1.44 2.65 1.29 1.80 1.13 | 1.66 | 1/18 (2.26) |
| 8 | KLSVSWLYESIEKNSVA | ERSTREE | QDYNRLPLS | 0.61 1.17 1.05 0.71 0.51 1.22 | 0.88 | 0/18 |
| 9 | KISQLVNFEGKNINSVA | QMSTRES | QQYDRLPLS | 1.06 1.36 0.87 0.90 1.10 0.90 | 1.03 | 0/18 |
| 10 | KLQQSVMFMSGVYNSVA | QMSTRAE | QCYNRLPLS | 2.18 2.37 2.52 ND 2.51 3.18 | 2.55 | 0/18 |
| 11 | HISQSFMMEQVWRNNIA | HQSTREQ | QQYDRLPFS | 0.70 0.83 0.70 0.71 0.42 0.93 | 0.72 | 3/18 (2.78) |
| 12 | KLSQSTSYESLNRNSVA | ELTTRGG | QQYNRLPLS | 0.81 2.07 0.73 1.79 1.49 1.32 | 1.37 | 0/18 |
| 13 | TISQSAHQESHNKNSVA | DLSVRGS | QQYDRLPLS | 1.28 0.76 1.00 1.15 1.03 0.96 | 1.03 | 1/18 (3.79) |
| 14 | HISQTVGMTSRNKNSVA | ENSTRED | QQYDRLPLS | ND ND 2.99 ND ND ND | 2.99 | 1/18 (2.10) |
| 15 | TLTQSVTMESHNKNSVA | DLSTRGS | QQYHRLPLS | -0.06 0.46 0.27 0.03 0.48 0.32 | 0.25 | 3/18 (3.23) |
| 16 | KLSQVTHSESRNKNSIA | EMVTRNV | QQYDRLPLS | 0.96 0.62 0.64 0.94 0.74 0.59 | 0.75 | 0/18 |
| 17 | KLRQVTEYESFNKNSVA | QTETRED | QDYDRLPLS | ND ND ND ND ND ND | ND | 1/18 (1.83) |
| 18 | HISQSFMTEQVWRNNIA | HQSTRET | QQYDRLPFS | 0.47 2.11 0.14 -0.10 1.16 0.07 | 0.64 | 0/18 |
| 19 | TISQMFLGESRNRNSVA | QASTRES | QCYDRLPLS | 0.85 0.93 0.79 0.73 0.81 0.95 | 0.84 | 0/18 |
| 20 | SLAESVHMETRNKNSVA | DNSTRES | QHYHRLPLS | ND ND ND ND ND ND | ND | 2/18 (2.40) |
| 21 | TISQMFLGESRNRNSVA | QAQTRES | QSYDRLPLS | 1.10 1.47 1.55 1.07 1.45 1.19 | 1.31 | 1/18 (2.63) |
| 22 | KLYTSTMLESHNKNSIA | DLSTRGN | QQYHRLPLS | 1.34 0.58 0.74 0.56 0.56 0.53 | 0.72 | 0/18 |
| 23 | KLSQSSNYLSRVMNSVA | DNSTRES | QQYFRLPLS | 0.75 0.61 0.78 0.67 0.41 1.04 | 0.71 | 0/18 |
| 24 | KLGGVTSYEMQNKNSVA | QMTTREK | QQYHRLPLS | 0.15 0.10 0.11 -0.06 0.15 0.40 | 0.14 | 2/18 (1.93) |
| 25 | MISDLTEYGSRNKNSVA | DLSTRGS | QQYHRLPLS | -0.30 -0.31 -0.45 -0.53 -0.58 -0.28 | -0.41 | 4/18 (3.33) |
| 26 | ILSQSVLMGMHLKNSVA | QATMRFN | QQYDRLPLM | ND ND ND ND ND 2.50 | 2.50 | 0/18 |
| 27 | MFSQLTYTGTRTRNAVA | QASTREN | QQYHHLPLS | 0.42 0.71 0.75 1.13 0.75 1.26 | 0.84 | 0/18 |
| 28 | MISDMGNHDSRMQNSVA | NNSTREA | QQYHRLPLS | 1.98 1.65 1.82 1.98 1.65 2.47 | 1.92 | 2/18 (2.50) |
| 29 | TLSQSMDMTSRNVNSVA | DLETRGN | QQYHRLPLS | 0.32 0.31 0.07 0.07 0.03 0.04 | 0.14 | 0/18 |
| 30 | HISQSAGVTSRNKNSVA | ENSTRED | QQYDRLPLS | ND ND 3.23 ND 3.02 ND | 3.13 | 0/18 |
| 31 | SLSMSMAFLSRNKNSVA | ENSTRES | QQYHRLPLI | 2.02 1.85 1.86 2.41 3.32 2.36 | 2.30 | 1/18 (2.53) |
| 32 | KVSQTFNVGTKNKNSLA | EMSTREF | QDYHRLPLS | 1.16 1.41 1.74 1.70 0.82 0.75 | 1.26 | 0/18 |
| 33 | MISGLMLAGSRNKNPIA | NASTREY | QQYHRLPLS | 1.85 2.12 2.90 1.89 1.77 2.29 | 2.14 | 1/18 (3.46) |
| 34 | TVSQVHEMLSHNKNSVA | DMNTRES | QQYDRLPLS | 0.09 -0.20 -0.51 0.23 0.08 -0.19 | -0.08 | 0/18 |
| 35 | ILSQSVLMGSHLKNSVA | QASTRFA | QQYHRLPLS | 0.70 0.79 0.47 0.44 0.78 0.53 | 0.62 | 0/18 |
| 36 | KIGLVTNGISFSKNSVA | EQSTRSN | QQYDRLPLS | ND ND 1.10 2.99 3.25 ND | 2.45 | 0/18 |
| 37 | KVSDSAGFLSRNRNSVA | DNSTRGS | QQYHRLPLS | 0.71 1.05 0.73 1.10 1.25 0.95 | 0.96 | 0/18 |
| 38 | KLGNMTAIESRNLNSVA | QMDTRES | QQYDRLPLS | 0.36 0.39 0.70 0.10 0.88 1.15 | 0.60 | 4/18 (2.28) |
| 39 | TVSQVHGMLSHNQNSVA | DMNTRGS | QQYDRLPLS | 0.39 -0.03 -0.04 -0.07 -0.09 0.24 | 0.07 | 0/18 |
| 40 | TISTSMRYESSLKNAIA | NAQTREA | QQYHRLPIS | 1.62 3.15 1.80 1.30 2.49 2.42 | 2.13 | 0/18 |
| 41 | KLPQSTMQESVSKNSVA | ELTTRGS | QQYHRLPLS | 0.64 0.35 0.49 0.18 0.15 0.22 | 0.34 | 0/18 |
| 42 | MISDLTMYGSRNVNSVA | DLSNRGS | QQYHRLPLS | 1.18 1.04 0.87 0.87 0.92 1.17 | 1.01 | 0/18 |
| 43 | NFSQMVLTGTTLRNSVA | HASTREE | QQYHRLPLI | 1.07 0.84 0.82 1.06 0.85 0.80 | 0.91 | 2/18 (3.76) |
| 44 | KLGSMTAIESRNNNSVA | QMDTRES | QQYDRLPLS | -0.03 0.02 -0.12 -0.08 -0.08 0.19 | -0.02 | 1/18 (4.22) |
| 45 | TIGPMLMTESRNKNSVA | GMQTRER | QQYHRLPLS | ND ND ND ND ND ND | ND | 0/18 |
| 46 | KIGHGLTTEMRNRNSVA | QTETRVS | QHYHRLPLS | 2.19 2.25 1.20 1.70 2.29 2.61 | 2.04 | 0/18 |
| 47 | TLMQVAGYEMNAHNSIA | DLRTRES | QQYHRLPLS | 0.88 0.27 0.80 0.56 0.71 0.44 | 0.61 | 0/18 |

The closing 6 entries, repeated:

{"CDR-L1": "MISDLTMYGSRNVNSVA", "CDR-L2": "DLSNRGS", "CDR-L3": "QQYHRLPLS", "log10 Kd, replicates": "1.18 1.04 0.87 0.87 0.92 1.17", "mean, log10 nM": "1.01", "empty controls": "0/18"}
{"CDR-L1": "NFSQMVLTGTTLRNSVA", "CDR-L2": "HASTREE", "CDR-L3": "QQYHRLPLI", "log10 Kd, replicates": "1.07 0.84 0.82 1.06 0.85 0.80", "mean, log10 nM": "0.91", "empty controls": "2/18 (3.76)"}
{"CDR-L1": "KLGSMTAIESRNNNSVA", "CDR-L2": "QMDTRES", "CDR-L3": "QQYDRLPLS", "log10 Kd, replicates": "-0.03 0.02 -0.12 -0.08 -0.08 0.19", "mean, log10 nM": "-0.02", "empty controls": "1/18 (4.22)"}
{"CDR-L1": "TIGPMLMTESRNKNSVA", "CDR-L2": "GMQTRER", "CDR-L3": "QQYHRLPLS", "log10 Kd, replicates": "ND ND ND ND ND ND", "mean, log10 nM": "ND", "empty controls": "0/18"}
{"CDR-L1": "KIGHGLTTEMRNRNSVA", "CDR-L2": "QTETRVS", "CDR-L3": "QHYHRLPLS", "log10 Kd, replicates": "2.19 2.25 1.20 1.70 2.29 2.61", "mean, log10 nM": "2.04", "empty controls": "0/18"}
{"CDR-L1": "TLMQVAGYEMNAHNSIA", "CDR-L2": "DLRTRES", "CDR-L3": "QQYHRLPLS", "log10 Kd, replicates": "0.88 0.27 0.80 0.56 0.71 0.44", "mean, log10 nM": "0.61", "empty controls": "0/18"}